Laboratory results published in patent publication US20240360179A1, “STAPLED PEPTIDES AND METHODS THEREOF” (FOG PHARMACEUTICALS, INC., priority 2021, published 2024).
pIC50: −log10 of the molar value. Where two headings read alike, the source gives them in different places.

Amino acid sequences for entries named in this document (tags omitted).
UniProt P35222, whole entry: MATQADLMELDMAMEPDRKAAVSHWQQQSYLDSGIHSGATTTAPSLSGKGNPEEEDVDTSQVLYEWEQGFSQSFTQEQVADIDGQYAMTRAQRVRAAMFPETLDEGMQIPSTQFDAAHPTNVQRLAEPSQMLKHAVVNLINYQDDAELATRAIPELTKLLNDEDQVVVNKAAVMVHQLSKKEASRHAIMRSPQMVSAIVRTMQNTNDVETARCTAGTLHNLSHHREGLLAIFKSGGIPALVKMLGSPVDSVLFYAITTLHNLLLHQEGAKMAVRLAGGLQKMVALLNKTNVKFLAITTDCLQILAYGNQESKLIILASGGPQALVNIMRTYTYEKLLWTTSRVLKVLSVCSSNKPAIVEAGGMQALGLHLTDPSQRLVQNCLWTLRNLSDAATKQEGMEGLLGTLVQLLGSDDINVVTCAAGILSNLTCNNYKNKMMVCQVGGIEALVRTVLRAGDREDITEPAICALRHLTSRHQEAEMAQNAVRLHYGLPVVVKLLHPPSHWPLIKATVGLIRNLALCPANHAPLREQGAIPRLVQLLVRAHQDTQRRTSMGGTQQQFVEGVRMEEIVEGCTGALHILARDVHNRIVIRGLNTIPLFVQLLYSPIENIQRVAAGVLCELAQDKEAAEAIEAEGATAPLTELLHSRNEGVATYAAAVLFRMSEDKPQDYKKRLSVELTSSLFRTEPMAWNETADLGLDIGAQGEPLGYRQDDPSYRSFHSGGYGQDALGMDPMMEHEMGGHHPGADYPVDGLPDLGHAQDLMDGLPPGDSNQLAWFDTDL

What was measured:
[1] = molecular target: beta-catenin/TCF4 interaction (Homo sapiens, UniProt P35222); assay type: cell-based; parameters: host or cells: HEK293; details: read-out: NanoBRET Abs IC50
[2] = molecular target: T1, full-length B-Catenin (Uniprot ID P35222) (Homo sapiens, UniProt P35222); assay type: binding; details: competition fluorescence polarization; read-out: beta-Catenin FP IC50
T1 construct: 10 nM full-length B-Catenin (Uniprot ID P35222)

Substance	pIC50 [1]	pIC50 [2]	pIC50 ([1]; absolute IC50)
Ac-PL3-Asp-Npg-B5-Asp-3COOHF-Aib-Ala-Phe-Lys*3-PyrS2-3Thi-34ClF-GlnR*3-Ser-NH2 [I-869]	5.52 to 5.82	> 7.30	
Ac-PL3-Asp-Npg-B5-Asp-3COOHF-Aib-Ala-Phe-Lys*3-PyrS2-3Thi-BztA-GlnR*3-Aib-Ala-NH2 [I-405]		> 7.30	> 5.82
Ac-PL3-Asp-Npg-B5-Asp-3COOHF-Aib-Ala-Phe-Lys*3-PyrS2-3Thi-BztA-GlnR*3-Ala-Ala-Ala-Ala-Ala-NH2 [I-783]	5.00 to 5.52	> 7.30	
Ac-PL3-Asp-Npg-B5-Asp-3COOHF-Aib-Ala-Phe-Lys*3-PyrS2-3Thi-BztA-GlnR*3-Ala-Ala-Ala-Leu-NH2 [I-807]	5.00 to 5.52	> 7.30	
Ac-PL3-Asp-Npg-B5-Asp-3COOHF-Aib-Ala-Phe-Lys*3-PyrS2-3Thi-BztA-GlnR*3-Ala-Ala-Ala-NH2 [I-782]	5.52 to 5.82	> 7.30	
Ac-PL3-Asp-Npg-B5-Asp-3COOHF-Aib-Ala-Phe-Lys*3-PyrS2-3Thi-BztA-GlnR*3-Ala-Ala-Leu-Leu-NH2 [I-806]	5.52 to 5.82	> 7.30	
Ac-PL3-Asp-Npg-B5-Asp-3COOHF-Aib-Ala-Phe-Lys*3-PyrS2-3Thi-BztA-GlnR*3-Ala-Ala-Leu-NH2 [I-804]	> 5.82	> 7.30	
Ac-PL3-Asp-Npg-B5-Asp-3COOHF-Aib-Ala-Phe-Lys*3-PyrS2-3Thi-BztA-GlnR*3-Ala-Ala-Leu-NH2 [I-805]	5.52 to 5.82	> 7.30	
Ac-PL3-Asp-Npg-B5-Asp-3COOHF-Aib-Ala-Phe-Lys*3-PyrS2-3Thi-BztA-GlnR*3-Ala-Ala-Lys-Leu-Pro-Val-nLeu-NH2 [I-815]	5.00 to 5.52	> 7.30	
Ac-PL3-Asp-Npg-B5-Asp-3COOHF-Aib-Ala-Phe-Lys*3-PyrS2-3Thi-BztA-GlnR*3-Ala-Ala-Val-Pro-Ala-Leu-Arg-NH2 [I-817]	5.52 to 5.82	> 7.30	
Ac-PL3-Asp-Npg-B5-Asp-3COOHF-Aib-Ala-Phe-Lys*3-PyrS2-3Thi-BztA-GlnR*3-Ala-Ala-Val-Pro-Thr-Leu-Lys-NH2 [I-813]	5.52 to 5.82	> 7.30	
Ac-PL3-Asp-Npg-B5-Asp-3COOHF-Aib-Ala-Phe-Lys*3-PyrS2-3Thi-BztA-GlnR*3-Ala-Lys-Leu-Pro-Val-nLeu-NH2 [I-814]	5.00 to 5.52	> 7.30	
Ac-PL3-Asp-Npg-B5-Asp-3COOHF-Aib-Ala-Phe-Lys*3-PyrS2-3Thi-BztA-GlnR*3-Ala-Val-Pro-Ala-Leu-Arg-NH2 [I-816]	> 5.82	> 7.30	
Ac-PL3-Asp-Npg-B5-Asp-3COOHF-Aib-Ala-Phe-Lys*3-PyrS2-3Thi-BztA-GlnR*3-Ala-Val-Pro-Thr-Leu-Lys-NH2 [I-812]	5.52 to 5.82	> 7.30	
Ac-PL3-Asp-Npg-B5-Asp-3COOHF-Aib-Ala-Phe-Lys*3-PyrS2-3Thi-BztA-GlnR*3-Asn-NH2 [I-723]	5.52 to 5.82	> 7.30	
Ac-PL3-Asp-Npg-B5-Asp-3COOHF-Aib-Ala-Phe-Lys*3-PyrS2-3Thi-BztA-GlnR*3-Gln-NH2 [I-724]	5.52 to 5.82	> 7.30	
Ac-PL3-Asp-Npg-B5-Asp-3COOHF-Aib-Ala-Phe-Lys*3-PyrS2-3Thi-BztA-GlnR*3-Gly-NH2 [I-714]	> 5.82	> 7.30	
Ac-PL3-Asp-Npg-B5-Asp-3COOHF-Aib-Ala-Phe-Lys*3-PyrS2-3Thi-BztA-GlnR*3-Leu-Asp-Leu-NH2 [I-503]		> 7.30	5.00 to 5.52
Ac-PL3-Asp-Npg-B5-Asp-3COOHF-Aib-Ala-Phe-Lys*3-PyrS2-3Thi-BztA-GlnR*3-Leu-Glu-Leu-NH2 [I-505]		> 7.30	5.00 to 5.52
Ac-PL3-Asp-Npg-B5-Asp-3COOHF-Aib-Ala-Phe-Lys*3-PyrS2-3Thi-BztA-GlnR*3-Leu-NH2 [I-715]	> 5.82	> 7.30	
Ac-PL3-Asp-Npg-B5-Asp-3COOHF-Aib-Ala-Phe-Lys*3-PyrS2-3Thi-BztA-GlnR*3-Leu-NH2 [I-716]	5.52 to 5.82	> 7.30	
Ac-PL3-Asp-Npg-B5-Asp-3COOHF-Aib-Ala-Phe-Lys*3-PyrS2-3Thi-BztA-GlnR*3-Leu-Ser-NH2 [I-785]	5.52 to 5.82	> 7.30	
Ac-PL3-Asp-Npg-B5-Asp-3COOHF-Aib-Ala-Phe-Lys*3-PyrS2-3Thi-BztA-GlnR*3-NH2 [I-712]	> 5.82	> 7.30	
Ac-PL3-Asp-Npg-B5-Asp-3COOHF-Aib-Ala-Phe-Lys*3-PyrS2-3Thi-BztA-GlnR*3-Npg-NH2 [I-717]	5.52 to 5.82	> 7.30	
Ac-PL3-Asp-Npg-B5-Asp-3COOHF-Aib-Ala-Phe-Lys*3-PyrS2-3Thi-BztA-GlnR*3-Npg-NH2 [I-718]	5.00 to 5.52	> 7.30	
Ac-PL3-Asp-Npg-B5-Asp-3COOHF-Aib-Ala-Phe-Lys*3-PyrS2-3Thi-BztA-GlnR*3-Trp-NH2 [I-725]	5.00 to 5.52	> 7.30	
Ac-PL3-Asp-Npg-B5-Asp-3COOHF-Aib-Ala-Phe-Lys*3-PyrS2-3Thi-BztA-GlnR*3-Trp-NH2 [I-726]	5.00 to 5.52	6.70 to 7.30	

Substance	pIC50 [1]	pIC50 [2]	pIC50 ([1]; absolute IC50)
Ac-PL3-Asp-Npg-B5-Asp-3COOHF-Aib-Ala-Phe-Lys*3-PyrS2-3Thi-BztA-GlnR*3-Tyr-NH2 [I-727]	5.52 to 5.82	> 7.30	
Ac-PL3-Asp-Npg-B5-Asp-3COOHF-Aib-Ala-Phe-Lys*3-PyrS2-3Thi-BztA-GlnR*3-Val-Asp-Leu-NH2 [I-513]		> 7.30	5.00 to 5.52
Ac-PL3-Asp-Npg-B5-Asp-3COOHF-Aib-Ala-Phe-Lys*3-PyrS2-3Thi-BztA-GlnR*3-Val-Thr-Ala-NH2 [I-509]		> 7.30	5.52 to 5.82
Ac-PL3-Asp-Npg-B5-Asp-3COOHF-Aib-Ala-Phe-Lys*3-PyrS2-3Thi-BztA-GlnR*3-Val-aThr-Ala-NH2 [I-511]		> 7.30	5.52 to 5.82
Ac-PL3-Asp-Npg-B5-Asp-3COOHF-Aib-Ala-Phe-Lys*3-PyrS2-3Thi-BztA-hGlnR*3-Ala-NH2 [I-787]	5.52 to 5.82	> 7.30	
Ac-PL3-Asp-Npg-B5-Asp-3COOHF-Aib-Ala-Phe-Lys*3-PyrS2-3Thi-BztA-hGlnR*3-NH2 [I-786]	5.00 to 5.52	> 7.30	
Ac-PL3-Asp-Npg-B5-Asp-3COOHF-Aib-Ala-Phe-Lys*3-PyrS2-Abu-BztA-GlnR*3-Ala-NH2 [I-269]	< 5.00	6.70 to 7.30	
Ac-PL3-Asp-Npg-B5-Asp-3COOHF-Aib-Ala-Phe-Lys*3-PyrS2-BztA-34ClF-GlnR*3-Ala-NH2 [I-945]	5.00 to 5.52	> 7.30	
Ac-PL3-Asp-Npg-B5-Asp-3COOHF-Aib-Ala-Phe-Lys*3-PyrS2-BztA-BztA-GlnR*3-Ala-NH2 [I-940]	5.00 to 5.52	> 7.30	
Ac-PL3-Asp-Npg-B5-Asp-3COOHF-Aib-Ala-Phe-Lys*3-PyrS2-Cpa-BztA-GlnR*3-Ala-NH2 [I-282]	5.00 to 5.52	> 7.30	
Ac-PL3-Asp-Npg-B5-Asp-3COOHF-Aib-Ala-Phe-Lys*3-PyrS2-CypA-34ClF-GlnR*3-Ala-NH2 [I-476]		> 7.30	5.00 to 5.52
Ac-PL3-Asp-Npg-B5-Asp-3COOHF-Aib-Ala-Phe-Lys*3-PyrS2-HepG-34ClF-GlnR*3-Ala-NH2 [I-944]	< 5.00	> 7.30	
Ac-PL3-Asp-Npg-B5-Asp-3COOHF-Aib-Ala-Phe-Lys*3-PyrS2-HexG-34ClF-GlnR*3-Ala-NH2 [I-942]	< 5.00	> 7.30	
Ac-PL3-Asp-Npg-B5-Asp-3COOHF-Aib-Ala-Phe-Lys*3-PyrS2-HexG-BztA-GlnR*3-Ala-NH2 [I-936]	< 5.00	6.70 to 7.30	
Ac-PL3-Asp-Npg-B5-Asp-3COOHF-Aib-Ala-Phe-Lys*3-PyrS2-Leu-BztA-GlnR*3-Ala-NH2 [I-274]	< 5.00	6.70 to 7.30	
Ac-PL3-Asp-Npg-B5-Asp-3COOHF-Aib-Ala-Phe-Lys*3-PyrS2-Npg-BztA-GlnR*3-Ala-NH2 [I-278]	< 5.00	6.70 to 7.30	
Ac-PL3-Asp-Npg-B5-Asp-3COOHF-Aib-Ala-Phe-Lys*3-PyrS2-Phe-34ClF-GlnR*3-NH2 [I-871]	> 5.82	> 7.30	
Ac-PL3-Asp-Npg-B5-Asp-3COOHF-Aib-Ala-Phe-Lys*3-PyrS2-Phe-34ClF-GlnR*3-Phe-NH2 [I-874]	5.00 to 5.52	> 7.30	
Ac-PL3-Asp-Npg-B5-Asp-3COOHF-Aib-Ala-Phe-Lys*3-PyrS2-Phe-34ClF-GlnR*3-Pro-NH2 [I-872]	5.00 to 5.52	> 7.30	
Ac-PL3-Asp-Npg-B5-Asp-3COOHF-Aib-Ala-Phe-Lys*3-PyrS2-Phe-34ClF-GlnR*3-Ser-NH2 [I-873]	5.52 to 5.82	> 7.30	
Ac-PL3-Asp-Npg-B5-Asp-3COOHF-Aib-Ala-Phe-Lys*3-PyrS2-[15PyraPy]2NH2F-BztA-GlnR*3-Ala-NH2 [I-1752]	5.00 to 5.52	> 7.30	
Ac-PL3-Asp-Npg-B5-Asp-3COOHF-Aib-Ala-Phe-Lys*3-PyrS2-hLeu-BztA-GlnR*3-Ala-NH2 [I-276]	5.00 to 5.52	> 7.30	
Ac-PL3-Asp-Npg-B5-Asp-3COOHF-Aib-Ala-Phe-Lys*3-PyrS2-hnLeu-5IndA-GlnR*3-Ala-NH2 [I-775]	5.00 to 5.52	> 7.30	
Ac-PL3-Asp-Npg-B5-Asp-3COOHF-Aib-Ala-Phe-Lys*3-PyrS2-hnLeu-BztA-GlnR*3-Leu-Ser-NH2 [I-955]	5.52 to 5.82	6.70 to 7.30	
Ac-PL3-Asp-Npg-B5-Asp-3COOHF-Aib-Ala-Phe-Lys*3-PyrS2-hnLeu-SbMeBzta-GlnR*3-Ala-NH2 [I-774]	< 5.00	6.12 to 6.70	
Ac-PL3-Asp-Npg-B5-Asp-3COOHF-Aib-Ala-Phe-Lys*3-PyrS2-nLeu-34ClF-GlnR*3-Ala-NH2 [I-474]		> 7.30	5.00 to 5.52
Ac-PL3-Asp-Npg-B5-Asp-3COOHF-Aib-Ala-Phe-TriAzLys*3-R3MePyrSc7-3Thi-BztA-sAla*3-Ala-NH2 [I-1810]	5.00 to 5.52	> 7.30	
